# AlphaSeq binding of Ab-14 heavy chain variants to a spike HR2 peptide

Binding partner: SARS-CoV-2 spike HR2 peptide, sequence PDVDLGDISGINAS.

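The starting antibody came from a phage panning campaign against this peptide. These sequences belong to a second round, designed from the earlier measurements on random variants of the parent. Several design methods are mixed in this list. The scFvs were displayed on barcoded MATa yeast, the peptide on MATalpha yeast. The frequency of each diploid, read from paired DNA barcodes, reflects how well the two displayed proteins bind. Read counts were normalised to the haploid input and turned into Kd by a linear fit to BCL2-family pairs of known affinity, for each replicate. Mating was done six times.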

Each scFv is VH, a (GGGGS)3 linker, VL, as in the parent Ab-14, and differs from it in the CDRs of the heavy chain only.
VH: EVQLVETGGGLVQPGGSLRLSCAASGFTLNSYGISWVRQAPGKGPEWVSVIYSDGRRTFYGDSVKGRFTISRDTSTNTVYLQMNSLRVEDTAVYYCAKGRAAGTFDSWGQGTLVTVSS
VL: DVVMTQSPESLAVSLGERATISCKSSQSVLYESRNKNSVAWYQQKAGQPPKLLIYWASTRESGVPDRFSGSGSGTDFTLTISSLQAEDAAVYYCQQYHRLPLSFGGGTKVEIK

Each variant is given by its three heavy chain CDRs, as the data file delimits them; those of the parent are GFTLNSYGIS, VIYSDGRRTFYGDSVK, GRAAGTFDS.
Affinities are written as log10 Kd with Kd in nM; a lower number is a better binder.
The mean shown is taken over the replicates in which the pair was detected.
A pair that was not seen in any replicate is written "no signal"; this usually means weak binding, but a binder can also be missed.
A sequence measured in both rounds can read differently, since the two assays cover different ranges.
Nonspecific signal, from three strains lacking the peptide, appeared in 1% of pairings of all heavy chain designs, centred on 2.08 (5% of these signals below 0.84); values are not corrected for it. For each scFv, signals with the empty controls are counted beside the result.
In the paper, a design with two or fewer of six values counts as a poor binder.
A sequence that the file lists under several names has all its replicates pooled.

CDR-H1 | CDR-H2 | CDR-H3 | log10 Kd (nM), mean | detected | empty controls
GFWLNSYGIS | VIYSDGRRTAYHDSVK | GRAAGTFDS | 0.50 | 6/6 | 0/18
GFQLDEYGIS | VIYADGERTMYSNDVK | GTEGGTFQQ | no signal | 0/6 | 0/18
GFDLNEYGIS | VIYADGMRTAYANSVK | GNTAGTFDV | -0.04 | 6/6 | 0/18
GFDLEDYGIS | VIYADGKRSFVSNNVK | GQLGNAFSM | 1.49 | 6/6 | 1/18
GFDLNEYGIS | VIYADGKRTFYADSVK | GEIAGTFDV | 0.72 | 6/6 | 0/18
GFTLNSYGIS | VIYSDGRRTFYSDSVK | GQTAGTFDD | -0.14 | 6/6 | 1/18
GFSLNSYGIS | VIYSDGRRTFYGDSVK | GMEAGTFDQ | 0.34 | 6/6 | 1/18
GFDLEEYGIS | VIYADGKRTAYTDSVK | GNVAGTFDV | -0.31 | 6/6 | 0/18
GFDLNEYGIS | VIYADGVRSAYADSVK | GNVAGTFDL | -0.25 | 6/6 | 0/18
GFDLNEYGIS | VIYADGRRTFYIDSVK | GTNAGTFDE | -0.18 | 6/6 | 0/18
GFTLNEYGIS | VIYSDGRRTAYQDSVK | GRAAGTFVS | no signal | 0/6 | 0/18
GFTLNDYGIS | VIYSDGRRTFYGDSVK | GRNAGTFIS | no signal | 0/6 | 0/18
GFTLNSYGIS | VIYSDGRRTAYGDSVK | GRNAGTFDS | 0.72 | 12/12 | 0/36
GQSLDDYGIS | VIYADGQRNAAADEVK | GENAGTFDI | 2.33 | 1/6 | 1/18
GFDLNEYGIS | VIYADGVRTAYSDSVK | GNVAGTFDM | -0.69 | 6/6 | 1/18
GFTLNSYGIS | VIYSDGRRTAYGDSVK | GNHSAFFDS | 0.99 | 6/6 | 0/18
GFTLNSYGIS | VIYSDLRRTFYGDSVK | GRLAGTFDS | no signal | 0/6 | 0/18
GFTLNEYDIS | VIYSDGRRTFYTDSVK | GNFIGTFDS | no signal | 0/6 | 0/18
GFTLNSYGIS | VIYSDGRRTFYGDSVK | GAAGGTFRS | no signal | 0/6 | 0/18
GFDLNEYGIS | VIYADGKRTAYIDSVK | GEVAGTFDS | -0.57 | 6/6 | 0/18
GFNLDEYGIS | VIYADGKRTAYSDSVK | GEVAGTFDI | -0.08 | 6/6 | 0/18
GFDLNEYGIS | VIYADGVRKAYADDVK | GNVAGTFDI | -0.76 | 6/6 | 1/18
GFTLNSYGIS | VIYADGRRTFYGDSVK | GRAAGTIKS | no signal | 0/6 | 0/18
GSTLNEYGIS | VIYSDGRRTFYTDSVK | GRFAMGFDS | no signal | 0/6 | 0/18
GFPLNEYGIS | VIYSDGRRTFYGDAVK | GRTAGTFDS | 0.13 | 6/6 | 0/18
GFDLNSYGIS | VIYSDGRRTFYHDSVK | GRMAGTFDS | 0.44 | 6/6 | 0/18
GFELNSYGIS | VIYSDGRRTFYGDSVK | GTTAGTFDL | -0.12 | 6/6 | 0/18
GFDLDEYGIS | VIYADGQRTAYADSVK | GEVAGTFDM | -0.19 | 6/6 | 1/18
GFDLNSYGIS | VIYSDGRRTFYDDQVK | GRTAGTFDS | -0.29 | 6/6 | 0/18
GFFLNEYGIS | VIYSDGRRTFYGDSVK | GRAAVTFDI | no signal | 0/6 | 0/18
GFDLNEYGIS | VIYADGMRTFYADSVK | GKNAGTFLV | 1.48 | 6/6 | 0/18
MFDLNSYGIS | VIYSDGRRTAYGDSVK | GRNAGTFDS | -0.21 | 6/6 | 1/18
GFDVEEYGIS | VIYADGMRSSYSQSVK | GEYSGNIYV | 3.19 | 1/6 | 1/18
GFDLNEYGIS | VIYADGMRTQYSDSVK | GNAAGTFDV | no signal | 0/6 | 0/18
GFDLNEYGIS | VIYADGMRTGYQQQVK | GYHSGGLNQ | no signal | 0/6 | 0/18
GFDLNEYGIS | VIYADGKRTAYSDSVK | GNQAGTFDT | -0.45 | 6/6 | 0/18
GFGLNEYGIS | VIYADGRRTFYGDSVK | GGAAGTFDS | -0.12 | 6/6 | 1/18
GFGLNSYGIS | VIYSDGRRTFYADSVK | GKAAGTFDS | 0.88 | 6/6 | 0/18
GNTLNSYGIS | VIYSDGRRTFYIDSVK | GWLAGTFDQ | 1.49 | 4/6 | 0/18
GFNIDEYGIS | VIYADGMRTAYSNAVK | GNVNGGTIS | no signal | 0/6 | 0/18
GFSLNWYGIS | VIYSDGRRTFYADSVK | GNAAGTFDS | 1.45 | 6/6 | 0/18
GFTLNEYGIK | VIYSDGRRTFYTDSVK | GRFAGTFTS | no signal | 0/6 | 0/18
GFTLNSYGIS | VIYSDGRRTEYGDSVK | GRAAGTFDS | 1.66 | 6/6 | 0/18
GFSLNEYGIS | VIYSDGKRTFYGDSVK | GQAAGTFDS | -0.25 | 6/6 | 0/18
GFTLNSYGIS | VIYSDGRRTFYGDSVK | GRAKGTFDS | no signal | 0/6 | 0/18
GFTLESYGIS | VIYSDGRRTFYADKVK | GRTAGTFDS | no signal | 0/6 | 1/18
GFTLNSYGIS | VIYSDVRRTFYGDAVK | GRYAGTFDS | no signal | 0/6 | 0/18
GFNLSEYGIS | VIYADGMRSNYANSVK | GHHGNFFID | 1.39 | 1/6 | 0/18
GFTLNSYGIS | VIYSDGRRTFYGDSVK | GRAAGTFTM | 1.51 | 2/6 | 0/18
GFELNSYGIS | VIYSDGWRTFYTDSVK | GRQAGTFDS | 1.93 | 5/6 | 0/18
GATLNSYGIS | VIYSDGRRTFYFDSVK | GRAAGTFES | no signal | 0/6 | 0/18
KFTLGSYGIS | VIYADGRRTFYGDSVK | GRAAGQNKS | no signal | 0/6 | 0/18
GFDINEYGIS | VIYADGRRTFYADSVK | GQVAGTFDS | 0.48 | 1/6 | 0/18
GFDLNEYGIS | VIYADGVRTAYVDDVK | GENAGTFDV | -0.33 | 6/6 | 0/18
GFSLNSYGIS | VIYSDGRRTFYQDQVK | GQTAGTFDS | 1.01 | 4/6 | 0/18
GDGLDEYGIS | VIYADGMRSSYSNDVK | GTNFGIKMV | no signal | 0/6 | 0/18
GFQLNSYGIS | VIYSDGQRTFYGDSVK | GRPAGTFDS | no signal | 0/6 | 2/18

For reference, 5 entries of the list once more:

CDR-H1	CDR-H2	CDR-H3	log10 Kd (nM), mean	detected	empty controls
GFGLNSYGIS	VIYSDGRRTFYADSVK	GKAAGTFDS	0.88	6/6	0/18
GFTLNSYGIS	VIYSDLRRTFYGDSVK	GRLAGTFDS	no signal	0/6	0/18
GFDLEEYGIS	VIYADGKRTAYTDSVK	GNVAGTFDV	-0.31	6/6	0/18
GFNIDEYGIS	VIYADGMRTAYSNAVK	GNVNGGTIS	no signal	0/6	0/18
GFFLNEYGIS	VIYSDGRRTFYGDSVK	GRAAVTFDI	no signal	0/6	0/18

The measurements come from Li et al. 2023 (doi:10.1038/s41467-023-39022-2) through the FLAb antibody collection.